Data on four molecules can be found in patent US20200048267A1, “OGA INHIBITOR COMPOUNDS” (Janssen Pharmaceutica NV, priority 2017, published 2020).

By UniProt entry, the sequences of proteins in these tests, tags left out.
UniProt O60502, whole entry: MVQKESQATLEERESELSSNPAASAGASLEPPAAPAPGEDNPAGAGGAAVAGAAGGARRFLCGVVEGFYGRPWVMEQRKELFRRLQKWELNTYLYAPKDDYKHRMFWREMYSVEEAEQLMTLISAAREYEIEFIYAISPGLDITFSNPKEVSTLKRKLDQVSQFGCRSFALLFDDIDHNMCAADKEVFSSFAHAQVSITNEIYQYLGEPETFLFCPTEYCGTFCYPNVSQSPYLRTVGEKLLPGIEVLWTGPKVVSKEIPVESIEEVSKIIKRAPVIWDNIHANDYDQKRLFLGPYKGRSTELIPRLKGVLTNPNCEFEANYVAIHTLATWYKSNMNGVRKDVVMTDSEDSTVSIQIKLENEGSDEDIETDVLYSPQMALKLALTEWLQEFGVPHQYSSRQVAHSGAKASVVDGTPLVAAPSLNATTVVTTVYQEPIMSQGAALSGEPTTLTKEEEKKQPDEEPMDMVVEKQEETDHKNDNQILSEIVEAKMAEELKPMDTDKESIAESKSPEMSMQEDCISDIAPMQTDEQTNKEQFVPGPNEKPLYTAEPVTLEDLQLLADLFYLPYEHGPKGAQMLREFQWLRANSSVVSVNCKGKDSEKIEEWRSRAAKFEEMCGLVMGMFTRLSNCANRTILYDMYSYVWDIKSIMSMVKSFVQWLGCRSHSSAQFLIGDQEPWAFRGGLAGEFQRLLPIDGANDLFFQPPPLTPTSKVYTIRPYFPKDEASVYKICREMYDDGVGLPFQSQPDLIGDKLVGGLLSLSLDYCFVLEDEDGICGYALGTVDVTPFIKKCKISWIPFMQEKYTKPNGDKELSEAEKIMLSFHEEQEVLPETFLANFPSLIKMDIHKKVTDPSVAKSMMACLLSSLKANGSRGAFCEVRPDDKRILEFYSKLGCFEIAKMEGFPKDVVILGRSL

Molecules are shown by their SMILES.

The target of one assay is OGA (Homo sapiens, UniProt O60502). The assay can be described thus: OGA cellular assay (ICC detection of O-GlcNAcylated proteins in HEK293 cells inducible for P301L mutant human Tau). The following applies: 6 hours incubation. The procedure: HEK293 cells inducible for P301L mutant human Tau (isoform 2N4R) were established at Janssen. Thiamet-G was used for both plate validation (high control) and as reference compound (reference EC50 assay validation). OGA inhibition is evaluated through the immunocytochemical (ICC) detection of O-GlcNAcylated proteins by the use of a monoclonal antibody (CTD110.6; Cell Signaling, #9875) detecting O-GlcNAcylated residues as previously described (Dorfmueller et al. 2010 Chemistry & biology, 17:1250). Inhibition of OGA will result in an increase of O-GlcNAcylated protein levels resulting in an increased signal in the experiment. Cell nuclei are stained with Hoechst to give a cell culture quality control and a rough estimate of immediate compounds toxicity, if any. ICC pictures are imaged with a Perkin Elmer Opera Phenix plate microscope and quantified with the provided software Perkin Elmer Harmony 4.1.
Cells were propagated in DMEM high Glucose (Sigma, #D5796) following standard procedures. 2 days before the cell assay cells are split, counted and seeded in Poly-D-Lysine (PDL) coated 96-wells (Greiner, #655946) plate at a cell density of 12,000 cells per cm^2 (4,000 cells per well) in 100 µl of Assay Medium (Low Glucose medium is used to reduce basal levels of GlcNAcylation) (Park et al. 2014 The Journal of biological chemistry 289:13519). At the day of compound test medium from assay plates was removed and replenished with 90 μl of fresh Assay Medium. 10 μl of compounds at a 10 fold final concentration were added to the wells. Plates were centrifuged shortly before incubation in the cell incubator for 6 hours. DMSO concentration was set to 0.2%. Medium is discarded by applying vacuum. For staining of cells medium was removed and cells washed once with 100 μl D-PBS (Sigma, #D8537). From next step onwards unless other stated assay volume was always 50 μl and incubation was performed without agitation and at room temperature. Cells were fixed in 50 μl of a 4% paraformaldehyde (PFA, Alpha aesar, # 043368) PBS solution for 15 minutes at room temperature. […] Before analysis samples were washed 2 times manually for 5 minutes in ICC base buffer.
Imaging is performed using Perkin Elmer Phenix Opera using a water 20× objective and recording 9 fields per well. Intensity readout at 488 nm is used as a measure of O-GlcNAcylation level of total proteins in wells. To assess potential toxicity of compounds nuclei were counted using the Hoechst staining. IC50-values are calculated using parametric non-linear regression model fitting. As a maximum inhibition Thiamet G at a 200 uM concentration is present on each plate. In addition, a concentration response of Thiamet G is calculated on each plate.

Assay [1] has as its target recombinant human Meningioma Expressed Antigen 5 (MGEA5), also referred to as O-GlcNAcase (OGA) (Homo sapiens, UniProt O60502). The assay is described as follows: OGA biochemical assay (inhibition of FM-GlcNAc hydrolysis, fluorescence). An excerpt:
The assay is based on the inhibition of the hydrolysis of fluorescein mono-β-D-N-Acetyl-Glucosamine (FM-GlcNAc) (Mariappa et al. 2015, Biochem J 470:255) by the recombinant human Meningioma Expressed Antigen 5 (MGEA5), also referred to as O-GlcNAcase (OGA). The hydrolysis FM-GlcNAc (Marker Gene technologies, cat # M1485) results in the formation of B-D-N-glucosamineacetate and fluorescein. The fluorescence of the latter can be measured at excitation wavelength 485 nm and emission wavelength 538 nm. An increase in enzyme activity results in an increase in fluorescence signal. Full length OGA enzyme was purchased at OriGene (cat # TP322411). The enzyme was stored in 25 mM Tris.HCl, pH 7.3, 100 mM glycine, 10% glycerol at −20° C. Thiamet G and GlcNAcStatin were tested as reference compounds (Yuzwa et al. 2008 Nature Chemical Biology 4:483; Yuzwa et al. 2012 Nature Chemical Biology 8:393). The assay was performed in 200 mM Citrate/phosphate buffer supplemented with 0.005% Tween-20. 35.6 g Na2HPO4 2 H2O (Sigma, # C0759) were dissolved in 1 L water to obtain a 200 mM solution. 19.2 g citric acid (Merck, # 1.06580) was dissolved in 1 L water to obtain a 100 mM solution. pH of the sodium phosphate solution was adjusted with the citric acid solution to 7.2. The buffer to stop the reaction consists of a 500 mM Carbonate buffer, pH 11.0. 734 mg FM-GlcNAc were dissolved in 5.48 mL DMSO to obtain a 250 mM solution and was stored at −20° C. OGA was used at 2 nM concentration and FM-GlcNAc at a 100 uM final concentration. Dilutions were prepared in assay buffer.
50 nl of a compound dissolved in DMSO was dispensed on Black Proxiplate™ 384 Plus Assay plates (Perkin Elmer, #6008269) and 3 μl fl-OGA enzyme mix added subsequently. Plates were pre-incubated for 60 min at room temperature and then 2 μl FM-GlcNAc substrate mix added. […] Plates were briefly centrifuged for 1 min at 1000rpm and incubate at room temperature for 6 h. To stop the reaction 5 μl STOP buffer were added and plates centrifuge again 1 min at 1000 rpm.
Fluorescence was quantified in the Thermo Scientific Fluoroskan Ascent or the PerkinElmer EnVision with excitation wavelength 485 nm and emission wavelength 538 nm.
For analysis a best-fit curve is fitted by a minimum sum of squares method. From this an IC50 value and Hill coefficient was obtained. High control (no inhibitor) and low control (saturating concentrations of standard inhibitor) were used to define the minimum and maximum values.

Consider `CC(=O)Nc1ncc(CN2CCC3(CCN(c4nc(C)cnc4C)C3)C2)s1` (single isomer, unassigned) [41], for which, on OGA, the “CELLULAR Emax (%)” value is recorded as 52.0% and the “CELLULAR hOGA; pEC50” value is listed as 6.09. Also, in assay [1], the “ENZYMATIC Emax (%)” value worked out at 99.6% and the “ENZYMATIC hOGA; pIC50” value came to 7.10.

In the case of `CC(=O)Nc1ncc(CN2CCC3(CCN(c4nc(C)cnc4C)C3)C2)s1` (single isomer, unassigned) [42], on OGA, the “CELLULAR Emax (%)” value was 40.3% and the “CELLULAR hOGA; pEC50” value was <6. Further, in assay [1], the “ENZYMATIC Emax (%)” value is reported as 100.5% and the “ENZYMATIC hOGA; pIC50” value worked out at 6.97.

Take `CC(=O)Nc1ncc(CN2CCC3(CCN(c4ncc(F)cc4F)C3)C2)s1` (single isomer, unassigned) [47]: at OGA, the “CELLULAR Emax (%)” value came to 43.4% and the “CELLULAR hOGA; pEC50” value is listed as <6. In assay [1], the “ENZYMATIC Emax (%)” value was found to be 97.2% and the “ENZYMATIC hOGA; pIC50” value amounted to 7.37.

As for `CC(=O)Nc1ncc(CN2CCC3(CCN(c4ncc(F)cc4F)C3)C2)s1` (single isomer, unassigned) [48], in assay [1], the “ENZYMATIC Emax (%)” value came out at 99.1% and the “ENZYMATIC hOGA; pIC50” value is listed as 6.88.
